Laboratory results as given in ChEMBL document CHEMBL1132920, “Syntheses of (R)- and (S)-2- and 6-fluoronorepinephrine and (R)- and (S)-2- and 6-fluoroepinephrine: effect of stereochemistry on fluorine-induced adrenergic selectivities” (J Med Chem, 2000).

Amino acid sequences for entries named in this document (tags omitted).
UniProt P18090, whole entry: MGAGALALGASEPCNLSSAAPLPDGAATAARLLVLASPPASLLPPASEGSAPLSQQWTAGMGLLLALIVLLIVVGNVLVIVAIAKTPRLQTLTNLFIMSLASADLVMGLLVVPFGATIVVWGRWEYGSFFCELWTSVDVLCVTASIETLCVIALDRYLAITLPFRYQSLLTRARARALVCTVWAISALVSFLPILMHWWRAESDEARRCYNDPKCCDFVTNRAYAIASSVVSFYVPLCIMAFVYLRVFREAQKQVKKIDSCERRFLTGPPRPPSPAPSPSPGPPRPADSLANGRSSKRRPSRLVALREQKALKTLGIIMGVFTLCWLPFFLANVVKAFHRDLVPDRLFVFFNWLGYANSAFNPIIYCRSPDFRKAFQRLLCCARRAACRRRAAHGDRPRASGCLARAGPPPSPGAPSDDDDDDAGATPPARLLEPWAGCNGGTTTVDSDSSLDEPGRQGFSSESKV

Target: Beta-1 adrenergic receptor (Rattus norvegicus, UniProt P18090)
Assay: Binding of [3H]dihydroalprenolol to beta-1 adrenergic receptor of rat cerebral cortical membranes
Type: cell membranes, Membrane
Summary of the method: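 Competition assay measuring displacement of specific [3H]dihydroalprenolol binding from rat cerebral cortical membranes to give beta-1 adrenergic receptor affinity.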

Ki: 10 µM
SMILES: NCCc1ccc(O)c(O)c1 [DOPAMINE]
